Assay results published in patent US4602025A, “Aromatase inhibitors” (Eli Lilly and Company, priority 1984, dated 1986).

Target: T1, aromatase (Rattus norvegicus, UniProt P22443)
T1 sequence (P22443 1-508): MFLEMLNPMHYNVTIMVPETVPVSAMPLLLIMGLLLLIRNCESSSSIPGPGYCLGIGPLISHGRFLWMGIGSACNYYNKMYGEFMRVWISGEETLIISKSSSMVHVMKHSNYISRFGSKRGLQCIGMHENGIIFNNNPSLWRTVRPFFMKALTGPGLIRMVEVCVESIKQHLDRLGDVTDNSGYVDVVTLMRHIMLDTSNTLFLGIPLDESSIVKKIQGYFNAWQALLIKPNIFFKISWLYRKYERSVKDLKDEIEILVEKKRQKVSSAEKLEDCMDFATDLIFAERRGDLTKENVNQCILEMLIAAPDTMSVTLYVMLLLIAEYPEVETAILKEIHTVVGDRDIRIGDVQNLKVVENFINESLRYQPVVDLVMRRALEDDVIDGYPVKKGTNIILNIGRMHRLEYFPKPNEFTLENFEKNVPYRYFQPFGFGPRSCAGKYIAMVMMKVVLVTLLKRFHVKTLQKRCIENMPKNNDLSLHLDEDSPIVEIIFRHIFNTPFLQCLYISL
Test: biochemical

pEC50: > 7.30
Structure (SMILES): c1ccc(C(c2ccccc2)(c2ccns2)n2ccnc2)cc1 [Example 1, 5-(1H-Imidazol-1-yldiphenylmethyl)isothiazole]

pEC50: −log10 of the molar value.
